Data from US20100143500A1, “Methods and Compositions for Inhibiting GSK-3 In Glial Cell Related Disorders” (THE OHIO STATE UNIVERSITY RESEARCH FOUNDATION, priority 2006, published 2010).

Legend:
[1] = tested on: three additional glioma cell lines and two human glioblastoma biopsies (X12 and X14)
Protocol: Spheroids from 6 glioma cell lines were grown in the presence of LiCl (10 mM or 20 mM).
Cell lines and chemicals. The U87 and U87ΔEGFR cell lines were provided by Dr. Webster Cavenee (Ludwig Institute for Cancer Research, La Jolla, Calif.). The human glioblastoma biopsies, X12 and X14 (from Dr. C. David James, Mayo Clinic, Rochester, Minn.), were maintained as flank tumors in nude mice as described (5). All cells were grown in DMEM with 10% FBS and 1% penicillin-streptomycin.

[2] = tested on: U87 glioma cell spheroids; assay: U87 glioma spheroid invasion in collagen I matrix

In the case of `O=C1NC(=O)C(c2ccccc2[N+](=O)[O-])=C1Nc1ccc(O)c(Cl)c1` [SB415286], the “spheroid expansion as a percentage of control spheres” value [1] is reported as “dose dependent decrease in spheroid expansion”, the “spheroid invasion in further glioma cell lines and biopsies” value [1] is reported as “observed in the full panel of cell lines” and the “invasion of glioma spheroids” value [2] is reported as “dose-dependent blockade of invasion”. For the same compound, the “reversibility of the invasion blockade” value [2] was “reversible” and the “spheroid expansion as a percentage of control spheres” value [2] was “dose dependent decrease in spheroid expansion”.
